Assay results: patent US10912838B2, “Carrier for use in delivering drug, conjugate, composition comprising same, and method for administrating same” (THE UNIVERSITY OF TOKYO, priority 2013, dated 2021)

Conditions: 3 mg/mL, 200 μL i.v. over 2 hours, 20% glucose i.p. after 5 minutes, 1 hour after completion

For Glc(6)-PEG-polyaspartic acid, the “accumulation in the brain, of the total dose per g of the brain” value was 0.4%.
